The text below walks through data of patent US10253000B2, “Pyridazin-3(2H)-one derivatives as monoamine oxidase selective isoform B inhibitors” (UNIVERSIDADE DE VIGO, priority 2014, dated 2019).

Sequences of proteins named here, by UniProt entry; tags and fusion partners are left off.
UniProt P21397, whole entry: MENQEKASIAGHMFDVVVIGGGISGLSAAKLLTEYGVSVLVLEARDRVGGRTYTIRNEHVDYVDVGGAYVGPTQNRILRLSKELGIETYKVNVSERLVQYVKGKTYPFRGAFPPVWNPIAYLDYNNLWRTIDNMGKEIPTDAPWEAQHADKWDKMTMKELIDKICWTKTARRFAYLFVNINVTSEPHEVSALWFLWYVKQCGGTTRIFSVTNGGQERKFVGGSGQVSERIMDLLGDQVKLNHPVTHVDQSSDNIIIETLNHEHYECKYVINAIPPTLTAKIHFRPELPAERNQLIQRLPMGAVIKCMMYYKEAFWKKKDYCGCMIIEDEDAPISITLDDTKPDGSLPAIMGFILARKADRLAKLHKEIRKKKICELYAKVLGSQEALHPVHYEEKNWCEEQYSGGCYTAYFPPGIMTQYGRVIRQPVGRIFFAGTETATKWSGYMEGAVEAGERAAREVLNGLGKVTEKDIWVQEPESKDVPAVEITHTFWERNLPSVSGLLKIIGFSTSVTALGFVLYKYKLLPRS

The target of this experiment is T1, human recombinant MAO-A (Homo sapiens, UniProt P21397).
T1 construct: purchased Sigma-Aldrich Química S.A., Alcobendas, Spain; host or cells: insect cells (BTI-TN-5B1-4) infected with recombinant baculovirus
In words: Determination of MAO isoforms activity (Amplex Red, p-tyramine), MAO-A. The class given is biochemical. The note with it: p-tyramine 1 mM, mean ± spread of 5 experiments, read-out: IC50 hMAO-A.

In general, IC50 refers to the concentration that inhibits the measured activity by half. `CC(C)NNC(=O)c1ccncc1` [Iproniazid, iproniazid, reference compound]: the IC50 was 6.56 ± 0.76 µM.
